pKi: −log10 of the molar value.
Columns and labels:
11β-hsd-1 enzyme [1] = biological target: T1, 11β-hsd-1 enzyme (Homo sapiens, UniProt P28845); experiment: biochemical
Protocol: The 11β-hsd-1 assay was performed in a 100 mM Triethanolamine buffer pH 8.0, containing 200 mM NaCl, 0.02% n-dodecyl β-D-maltoside, 5% glycerol, 5 mM β-mercaptoethanol. A typical reaction for the determination of Kiapp values was carried at R.T. in a Corning® u-bottom 96-well plate and is described as follows: 11β-hsd-1 enzyme (5 nM, final concentration) was pre-incubated in the presence of the inhibitor and NADPH (500 μM, final concentration) for at least 30 minutes in the assay buffer. When pre-incubation was completed, the reaction was initiated by adding the regenerating system (2 mM Glucose-6-Phosphate, 1U/mL Glucose-6-Phosphate dehydrogenase, and 6 mM MgCl2, all the concentration reported are final in the assay buffer), and 3H-cortisone (200 nM, final concentration). After 60 minutes, 60 μL of the assay mixture was transferred to a second 96-well plate and mixed with an equal volume of dimethylsulfoxide to stop the reaction. […]
The initial reaction velocities were measured by stopping the reaction at 60 min and by measuring the area of product formation in the absence and the presence of various concentrations of inhibitors. The Kiapp values were determined using the equation for tight-binding inhibitor developed by Morrison, J. F. (Morrison J. F. Biochim BiophysActa. 1969; 185: 269-86). […]

Protein sequences, listed by entry. Tags and fused reporters are not part of them.
UniProt P28845, whole entry, species assumed: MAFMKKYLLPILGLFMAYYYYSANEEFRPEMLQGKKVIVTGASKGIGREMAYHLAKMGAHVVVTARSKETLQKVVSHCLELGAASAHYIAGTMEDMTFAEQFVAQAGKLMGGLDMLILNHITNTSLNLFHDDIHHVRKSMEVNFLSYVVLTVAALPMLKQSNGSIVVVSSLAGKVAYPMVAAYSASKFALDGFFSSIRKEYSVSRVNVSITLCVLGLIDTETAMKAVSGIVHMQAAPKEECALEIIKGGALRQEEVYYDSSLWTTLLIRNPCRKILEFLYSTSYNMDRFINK

11β-hsd-1 enzyme [2] = biological target: T1, 11β-hsd-1 enzyme; experiment: biochemical; settings: read-out: % Inh @ 0.1 μM
Protocol: Percentage of inhibition was determined in a 100 mM Triethanolamine buffer, pH 8.0, 200 mM NaCl, 0.02% n-dodecyl β-D-maltoside and 5 mM β-ME. A typical reaction was carried on a Corning® u-bottom 96-well plate and is described as follows: 11β-hsd-1 enzyme (5 nM, final concentration) was pre-incubated in the presence of the inhibitor and NADPH (500 μM, final concentration) for at least 30 minutes
in the assay buffer. When pre-incubation was completed, the reaction was initiated by adding the regenerating system (2 mM Glucose-6-Phosphate, 1U/mL Glucose-6-Phosphate dehydrogenase, and 6 mM MgCl2, all the concentration reported are final in the assay buffer), and 3H-cortisone (200 nM, final concentration). After 60 minutes, 60 μL of the assay mixture was transferred to a second 96-well plate and mixed with an equal volume of dimethylsulfoxide to stop the reaction. A 15 μL aliquot from the reaction mixture was loaded into a C-18 column (Polaris C18-A, 50×4.6 mm, 5 μ, 180 Angstrom from Varian) connected to an automated High-throughput Liquid Chromatography instrument developed by Cohesive Technologies Inc of Franklin, Mass., with a […] model 3 Radio-HPLC detector from IN/US of Tampa, Fla. […]
Percent Inhibition was calculated based on the following equation: (1-(3H-Cortisol peak area in the […] of inhibitor)×100).

Row | SMILES | pKi (11β-hsd-1 enzyme [1]) | inhibition at 0.1 µM (11β-hsd-1 enzyme [2])
1 | Cc1cccc(NS(=O)(=O)N2CCN(c3ccc(C#N)cn3)CC2)n1 [Example 2, 4-(5-cyanopyridin-2-yl)-N-(6-methylpyridin-2-yl)piperazine-1-sulfonamide] | 7.76 | 100%
2 | N#Cc1ccc(N2CCN(S(=O)(=O)Nc3cccc(N)n3)CC2)nc1 [Example 19, N-(6-aminopyridin-2-yl)-4-(5-cyanopyridin-2-yl)piperazine-1-sulfonamide] | 8.66 | 96.9%

— patent publication US20070027118A1 (priority 2005, published 2007)
